System: LoVo cell line
Assay: Intracellular ROS level (DCFH-DA), LoVo cells
Format: cell-based
Conditions: Homo sapiens, 4 h, compound 100 μM, without H2O2, n = 5, read-out: ROS scavenging activity, Mean E/E0 ± SD, without H2O2
Protocol: Two cell lines were chosen for investigations: V79 (Chinese hamster lung fibroblasts) and LoVo. V79 normal cells are widely used as the cell line tested in the studies of the oxidative stress. These cells are a living system model to explain the mechanism of ROS effects caused by varied compounds [73].
First, the tested compounds (in concentration of 100 μM) were added to the cell cultures and cells were incubated for 4 h. Then cells were washed and incubated with DCFH-DA (non-fluorescent probe) in dark at 37 °C for 2 h at CO2 [79]. Non-fluorescent, non-polar DCFH-DA (2′7′-dichlorodihydrofluorescein diacetate) at concentration of 25 μM was used as a marker of oxidative stress to determine the intracellular ROS levels. […] In this time, DCFH-DA which penetrated into the cells, was hydrolyzed by esterases to polar, non-fluorescent DCFH (2′7′-dichlorodihydrofluorescein) and then oxidized in the presence of ROS (reactive oxygen species) to fluorescent DCF (2′7′-dichlorofluorescein). […] Then results were presented as E/E0 where E is test sample value and E0—control value.
All results in Tables are presented as mean ± SEM (standard error of the mean) relative to the control (E/E0). E is the culture with the tested compound and E0 is the negative control without the compound. The routine statistical methods: two-way analysis of variance ANOVA as well as Tukey’s post-hoc test were used. […]

## Cc1cnc(NC(=O)C2=C(O)c3ccccc3S(=O)(=O)N2C)s1 [Meloxicam, meloxicam, reference compound]
  activity at 100 µM: 106 ± 32%
